Values of other authors, collected in article PMC10552749, “Anti-methicillin-resistant Staphylococcus aureus and antibiofilm activity of new peptides produced by a Brevibacillus strain” (PeerJ, 2023).

Settings: ref Baczek, Walijewski & Kaliszan, 2008, cited from earlier work
From the text: In the present study, five anti-MRSA peptides were separated from SPR19 by RPC. P1 was first eluted from the column because it had the lowest hydrophobicity and high polarity because of four negatively charged amino acids (glutamate). This was supported by a previous study that determined the peptide retention in RPC when using acetonitrile as an eluting solution and trifluoroacetic acid (TFA) as an ion-pairing agent. They used the synthesized peptides with close molecular weight but different hydrophobicity as the model peptides. The uniform distribution of peptide peaks in the chromatogram w ...

Substance: DAEFRHDSGY-NH2 [literature model peptide for RPC retention]
- RPC retention time (isocratic elution by 0.1% TFA and ACN): 7.24 min
- pI: 4.54
